Assay results as given in patent US7964376B2, “Chimeric proteins and their use in methods to screen for sweet taste modulators” (Givaudan SA, priority 2006, dated 2011).

Test system: G16gust44 (NEG. CONTROL)
Details: normalized increase in fluorescence over baseline, mean of three replicates; p-ETBZ 100 microM, NDHC 1 mM, NarDHC 1 mM, Cyclamate 5 mM

Structure (SMILES)	G16gust44 (NEG. CONTROL) AVG (dF/F)
COc1ccc(CCC(=O)c2c(O)cc(O[C@@H]3O[C@H](CO)[C@@H](O)[C@H](O)[C@H]3O[C@@H]3O[C@@H](C)[C@H](O)[C@@H](O)[C@H]3O)cc2O)cc1O [NDHC, Neohesperidin Dihydrochalcone]	0.23
CCOc1ccc(C=O)cc1 [p-ETBZ]	0.16
